Measured values reported in patent publication US20100323956A1.

Target: GLP-1 receptor (UniProt P43220)
Test: cell-based or functional assay

**Q.** Which EC50, real-time calcium mobilization assay (calcium flux, FLIPR) on cell line expressing native GLP-1 receptor; exendin-4 from Anaspec does the source give for native exendin-4 (peptide) here?
**A.** 0.075 nM

**Q.** What about the EC50, real-time calcium mobilization assay (calcium flux, FLIPR) on cell line expressing native GLP-1 receptor; exendin-4 from Tocris of the same substance?
**A.** 0.11 nM
